{
  "source": "patent US20260207713A1",
  "about": "“Drug Combination Kit for Controlling Blood Sugar” (Ningbo Y Biotechology lnc., priority 2023, published 2026)",
  "origin": "cited, not measured here",
  "conditions": "ranks first among the top ten drugs causing adverse events; cited from earlier work",
  "data": [
    {"substance": "insulin", "values": [
      {"measurement": "Incidence rate of adverse events", "value": 8, "unit": "%"}
    ]}
  ]
}
